# Values quoted from earlier work as cited in US11759495B2, “Upregulation of therapeutic T regulatory cells and suppression of suicidal ideations in response to inflammation by administration of nutraceutical compositions alone or combined with minocycline” (Therapeutic Solutions International, Inc., priority 2020, dated 2023).
# How the values were obtained:
# iNOS = conditions: 5 and 10 microM for 6-24 hr, vs macrophages without EGCG; cited from earlier work
# LPS-induced ARDS = conditions: 10 mg/kg ip; cited from earlier work
# ulcerative colitis (UC) = conditions: cited from earlier work
# [1] = 50 and 100 mg/kg/day, vs MD group
substance,measurement,setting,value
epigallocatechin-3-gallate [EGCG],iNOS activity in soluble extracts,iNOS,significantly lower
same,"histological lesions, wet-to-dry weight ratios, and myeloperoxidase (MPO) activity",LPS-induced ARDS,reduced
same,disease activity index (DAI),ulcerative colitis (UC); [1],decreased
same,spleen index (SI),ulcerative colitis (UC); [1],decreased
same,splenic regulatory T-cell (Treg)/T helper 17 cell (Th17) ratio,"ulcerative colitis (UC); mouse, in vivo",regulate
